Here are results for one substance from patent US4728509A, “Aqueous liquid preparation” (Takeda Chemical Industries, Ltd., priority 1985, dated 1988).

This data set in a line: Solubility test of compound (a) with and without solubilizers (Experimental Example 1; HPLC of filtrate). Particulars: in words; substance used as solubilizer.

On to nicotinic acid [reference compound], for which the “effect for improving the solubility of compound (a)” value is reported as “some improvement”.
